The values that follow come from ChEMBL document CHEMBL1177646, “Inhibition of prolyl oligopeptidase with a synthetic unnatural dipeptide” (Bioorg Med Chem, 2010).

Structures are written as SMILES.

The target in assay [1] is T1, Prolyl endopeptidase (Homo sapiens) (UniProt P48147).
T1 sequence (whole entry): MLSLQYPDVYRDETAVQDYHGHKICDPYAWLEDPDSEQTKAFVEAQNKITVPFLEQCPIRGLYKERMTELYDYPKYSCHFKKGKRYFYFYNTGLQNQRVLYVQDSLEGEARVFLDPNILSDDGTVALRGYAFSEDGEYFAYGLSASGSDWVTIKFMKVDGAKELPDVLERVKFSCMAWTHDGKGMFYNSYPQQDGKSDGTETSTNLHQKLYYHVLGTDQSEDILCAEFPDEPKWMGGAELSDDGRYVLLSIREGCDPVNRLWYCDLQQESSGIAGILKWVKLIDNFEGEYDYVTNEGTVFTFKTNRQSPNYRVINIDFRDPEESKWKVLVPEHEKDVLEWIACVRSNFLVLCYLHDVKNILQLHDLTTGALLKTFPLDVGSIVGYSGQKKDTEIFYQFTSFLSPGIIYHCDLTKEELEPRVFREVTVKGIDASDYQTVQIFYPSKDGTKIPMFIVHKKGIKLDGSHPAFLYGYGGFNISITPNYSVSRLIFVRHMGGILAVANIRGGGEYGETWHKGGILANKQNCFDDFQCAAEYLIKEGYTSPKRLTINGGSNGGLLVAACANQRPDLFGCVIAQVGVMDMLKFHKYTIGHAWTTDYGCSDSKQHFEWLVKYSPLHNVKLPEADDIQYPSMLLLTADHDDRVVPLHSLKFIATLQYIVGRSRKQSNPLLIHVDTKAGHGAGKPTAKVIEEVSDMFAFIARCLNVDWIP
The experiment in a line: Inhibition of prolyl oligopeptidase assessed as fractional activity at 0.0005 uM.

Assay [2] concerns the target T1, Prolyl endopeptidase (Homo sapiens). The experiment in a line: Inhibition of prolyl oligopeptidase assessed as fractional activity at 0.0025 uM.
Assay [3] has the same target. Description: Inhibition of prolyl oligopeptidase assessed as fractional activity at 0.0075 uM.
Assay [4] has the same target. Description: Inhibition of prolyl oligopeptidase assessed as fractional activity at 0.010 uM.
Assay [5] shares this target. Description: Inhibition of prolyl oligopeptidase assessed as fractional activity at 0.025 uM.
For assay [6] the target is unchanged. The experiment in a line: Inhibition of prolyl oligopeptidase assessed as fractional activity at 0.050 uM.
For assay [7] the target is unchanged. Description: Inhibition of prolyl oligopeptidase assessed as fractional activity at 0.075 uM.
Assay [8] shares this target. The experiment in a line: Inhibition of prolyl oligopeptidase assessed as fractional activity at 0.085 uM.
Assay [9] shares this target. The experiment in a line: Inhibition of prolyl oligopeptidase assessed as fractional activity at 0.1 uM.
Assay [10] shares this target. The experiment in a line: Inhibition of prolyl oligopeptidase assessed as fractional activity at 2.5 uM.
For assay [11] the target is unchanged. The experiment in a line: Inhibition of prolyl oligopeptidase assessed as fractional activity at 5 uM.
The target is the same in assay [12]. The experiment in a line: Inhibition of prolyl oligopeptidase assessed as fractional activity at 10 uM.
Assay [13] shares this target. Description: Inhibition of prolyl oligopeptidase assessed as fractional activity at 0.0001 uM.
Assay [14] shares this target. The experiment in a line: Inhibition of prolyl oligopeptidase assessed as fractional activity at 0.0010 uM.
The target is the same in assay [15]. Description: Inhibition of prolyl oligopeptidase assessed as fractional activity at 0.0050 uM.
Assay [16] shares this target. The experiment in a line: Inhibition of prolyl oligopeptidase assessed as fractional activity at 1 uM.
The target is the same in assay [17]. The experiment in a line: Inhibition of prolyl oligopeptidase assessed as fractional activity at 2 uM.
For assay [18] the target is unchanged. Description: Inhibition of prolyl oligopeptidase assessed as fractional activity at 3 uM.
Assay [19] shares this target. The experiment in a line: Inhibition of prolyl oligopeptidase assessed as fractional activity at 4 uM.
For assay [20] the target is unchanged. Description: Inhibition of prolyl oligopeptidase assessed as fractional activity at 15 uM.
For assay [21] the target is unchanged. Description: Inhibition of prolyl oligopeptidase assessed as fractional activity at 20 uM.
For assay [22] the target is unchanged. The experiment in a line: Inhibition of prolyl oligopeptidase assessed as fractional activity at 25 uM.
Assay [23] shares this target. The experiment in a line: Inhibition of prolyl oligopeptidase assessed as fractional activity at 50 uM.
Assay [24] has the same target. The experiment in a line: Inhibition of prolyl oligopeptidase assessed as fractional activity at 75 uM.
Assay [25] has the same target. The experiment in a line: Inhibition of prolyl oligopeptidase assessed as fractional activity at 100 uM.

As for `Nc1ccc([N+](=O)[O-])cc1`, the Activity worked out at 0.984 in [1]; 0.95 in assay [2]; 0.924 in assay [3]; 0.748 in assay [4]; 0.481 in assay [5]; 0.39 in assay [6]. In addition, the Activity is 0.189 in assay [7]; 0.127 in [8]; 0.0216 in assay [9]; 0.016 in assay [10]; 0.00978 in [11]; 0 in assay [12]. Moreover, the Activity turned out to be 0.99 in [13], 0.896 in assay [14] and 1.02 in [15].
With `O=C(NCC(=O)N1CCC[C@H]1C(=O)Nc1ccc([N+](=O)[O-])cc1)OCc1ccccc1`, the Activity in assay [16] was found to be 0; in [17], 0.0417; in [18], 0.0417; in assay [19], 0.0694; in [11] it was 0.181; in assay [12] it was 0.208. The Activity was determined as 0.361 in assay [20]; 0.333 in assay [21]; 0.514 in assay [22]; 0.722 in assay [23]; 1 in [24]; 0.997 in assay [25].
